The record followed here is PubChem BioAssay (NCI).

Some test systems named below: SK-MEL-2 melanoma; EKVX NSCLC; SN12C renal; UO-31 renal; TK-10 renal; ACHN renal; CAKI-1 renal; A498 renal; HL-60(TB) leukemia; CCRF-CEM leukemia; MOLT-4 leukemia; SR leukemia; RPMI-8226 leukemia; OVCAR-8 ovarian; OVCAR-5 ovarian; OVCAR-4 ovarian; SK-OV-3 ovarian; IGROV1 ovarian; OVCAR-3 ovarian; HS 578T breast.
What all share (assay): NCI-60 one-dose screen, 48 h (100 = growth as untreated, 0 = no growth, -100 = all killed)
Holding throughout (settings): 10 µM

“And” between values parts separate entries of the source, which are not always exact repeats. Equal values may be shown once. Only a part is listed here, and it is no random draw.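 The endpoint reported here, percent growth, reads 100 for growth as untreated, 0 for no net growth and -100 for all cells dead.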 Some salts and complexes are drawn in separate pieces, as the source files them; their charges need not balance. The source made the active and inactive calls. Rule for the calls: active = growth percent below 10; inactive = the rest.

`CCN(CC)CCOC(=O)C(O)(c1ccccc1)c1cc(C)cc(C)c1C` (stereo not given): the growth with SK-MEL-2 melanoma was inactive: 112%; with EKVX NSCLC it was inactive: 92.7%; in the assay on SN12C renal it was inactive: 97.6%; with UO-31 renal it was inactive: 79.2%; in the assay on TK-10 renal, inactive: 106%; with ACHN renal, inactive: 100%. Further, the growth in the assay on CAKI-1 renal is inactive: 89.6%; with A498 renal it was inactive: 88.3%; with HL-60(TB) leukemia, inactive: 91.6%; with CCRF-CEM leukemia, inactive: 105%; in the assay with MOLT-4 leukemia, inactive: 88.7%; with SR leukemia it was inactive: 92.8%. In addition, the growth is inactive: 103% in the assay with RPMI-8226 leukemia; inactive: 103% with OVCAR-8 ovarian; inactive: 95.2% with OVCAR-5 ovarian; inactive: 110% in the assay with OVCAR-4 ovarian; inactive: 91% in the assay with SK-OV-3 ovarian; inactive: 106% in the assay on IGROV1 ovarian. The growth in the assay on OVCAR-3 ovarian is inactive: 101%; in the assay on HS 578T breast it was inactive: 110%.

For `CN(C)CCS`, the growth was inactive: 119% and inactive: 112% with SK-MEL-2 melanoma; inactive: 88.6% in the assay on EKVX NSCLC; inactive: 97.4% and inactive: 103% in the assay with SN12C renal; inactive: 98.7% and inactive: 72.4% in the assay on UO-31 renal; inactive: 121% and inactive: 110% with TK-10 renal; inactive: 117% and inactive: 100% with ACHN renal. Besides, the growth with CAKI-1 renal is inactive: 104%; with A498 renal, inactive: 111%; in the assay on HL-60(TB) leukemia, inactive: 114% and inactive: 99.9%; in the assay on CCRF-CEM leukemia, inactive: 97.3% and inactive: 104%; with MOLT-4 leukemia, inactive: 112% and inactive: 114%; with SR leukemia, inactive: 119% and inactive: 97.8%. The growth in the assay on RPMI-8226 leukemia was inactive: 108% and inactive: 102%; in the assay on OVCAR-8 ovarian, inactive: 124% and inactive: 97.5%; with OVCAR-5 ovarian, inactive: 108% and inactive: 95.6%; in the assay on OVCAR-4 ovarian, inactive: 116% and inactive: 113%; in the assay on SK-OV-3 ovarian it was inactive: 110% and inactive: 109%; in the assay with OVCAR-3 ovarian it was inactive: 107% and inactive: 104%. In addition, the growth in the assay on HS 578T breast was inactive: 129% and inactive: 81.2%.

Regarding `O=[N+]([O-])c1ccc(OP2(=O)COCCO2)cc1` (stereo not given), the growth in the assay on SK-MEL-2 melanoma is inactive: 109%; with EKVX NSCLC, inactive: 97.7%; with SN12C renal it was inactive: 96%; with UO-31 renal it was inactive: 93.9%; with TK-10 renal it was inactive: 115%; with ACHN renal, inactive: 105%. Further, the growth in the assay with CAKI-1 renal was inactive: 100%; in the assay on A498 renal, inactive: 108%; in the assay with HL-60(TB) leukemia, inactive: 91.5%; in the assay on CCRF-CEM leukemia, inactive: 95.9%; in the assay on MOLT-4 leukemia it was inactive: 91.5%; in the assay with SR leukemia it was inactive: 79.8%. The growth in the assay on RPMI-8226 leukemia was inactive: 101%; in the assay on OVCAR-8 ovarian, inactive: 120%; with OVCAR-5 ovarian, inactive: 101%; in the assay with OVCAR-4 ovarian, inactive: 102%; with SK-OV-3 ovarian, inactive: 112%; in the assay on IGROV1 ovarian, inactive: 109%. For the same compound, the growth is inactive: 112% in the assay on OVCAR-3 ovarian and inactive: 133% in the assay with HS 578T breast.

For the compound `Cc1c([N+](=O)[O-])c(C)c([N+](=O)[O-])c(C)c1[N+](=O)[O-]`, the growth in the assay on SK-MEL-2 melanoma was inactive: 109%; in the assay with EKVX NSCLC, inactive: 83.7%; in the assay with SN12C renal it was inactive: 111%; with UO-31 renal it was inactive: 78.8%; with TK-10 renal, inactive: 104%; in the assay with ACHN renal, inactive: 98.4%. Also, the growth was inactive: 92.7% with CAKI-1 renal; inactive: 106% in the assay with A498 renal; inactive: 105% in the assay on HL-60(TB) leukemia; inactive: 98.7% in the assay on CCRF-CEM leukemia; inactive: 102% with MOLT-4 leukemia; inactive: 101% in the assay on SR leukemia. The growth is inactive: 100% in the assay with RPMI-8226 leukemia; inactive: 112% in the assay on OVCAR-8 ovarian; inactive: 95.8% in the assay on OVCAR-5 ovarian; inactive: 123% with OVCAR-4 ovarian; inactive: 107% with SK-OV-3 ovarian; inactive: 105% in the assay on IGROV1 ovarian. In addition, the growth in the assay with HS 578T breast was inactive: 106%.

For the compound `O=C(Cl)c1c([N+](=O)[O-])cc([N+](=O)[O-])cc1[N+](=O)[O-]`, the growth in the assay on SK-MEL-2 melanoma was inactive: 109%; in the assay with EKVX NSCLC, inactive: 86.6%; in the assay on SN12C renal, inactive: 83.1%; in the assay with UO-31 renal, inactive: 67.5%; in the assay on TK-10 renal it was inactive: 103%; with ACHN renal it was inactive: 28.9%. Also, the growth was active: -14.2% with CAKI-1 renal; inactive: 114% in the assay on A498 renal; inactive: 27.3% with HL-60(TB) leukemia; inactive: 39.5% with CCRF-CEM leukemia; inactive: 71.8% in the assay with MOLT-4 leukemia; inactive: 13.9% in the assay with SR leukemia. Moreover, the growth is active: 5.23% with RPMI-8226 leukemia; inactive: 84.4% in the assay with OVCAR-8 ovarian; inactive: 119% in the assay with OVCAR-5 ovarian; inactive: 73.2% in the assay on OVCAR-4 ovarian; inactive: 126% in the assay with SK-OV-3 ovarian; inactive: 92.7% in the assay on IGROV1 ovarian. Further, the growth was active: -73.4% in the assay on OVCAR-3 ovarian and inactive: 15.1% in the assay with HS 578T breast.

As to `Cc1ccc(Nc2c([N+](=O)[O-])cc([N+](=O)[O-])cc2[N+](=O)[O-])cc1`, the growth in the assay with SK-MEL-2 melanoma is inactive: 106%; with EKVX NSCLC it was inactive: 83%; in the assay on SN12C renal, inactive: 89%; with UO-31 renal, inactive: 62.9%; in the assay with TK-10 renal, inactive: 113%; in the assay on ACHN renal, inactive: 77.2%. The growth was inactive: 80% with CAKI-1 renal; inactive: 76.7% in the assay on A498 renal; inactive: 94% with HL-60(TB) leukemia; inactive: 76.3% in the assay on CCRF-CEM leukemia; inactive: 67.3% in the assay with MOLT-4 leukemia; inactive: 87.2% with SR leukemia. Further, the growth was inactive: 65.4% in the assay with RPMI-8226 leukemia; inactive: 84.5% in the assay on OVCAR-8 ovarian; inactive: 89.2% in the assay with OVCAR-5 ovarian; inactive: 87.8% in the assay with SK-OV-3 ovarian; inactive: 79.8% in the assay with IGROV1 ovarian; inactive: 20.1% with OVCAR-3 ovarian. Moreover, the growth in the assay with HS 578T breast was inactive: 93.8%.

On to `O=[N+]([O-])OCCOc1ccc([N+](=O)[O-])cc1[N+](=O)[O-]`, for which the growth in the assay with SK-MEL-2 melanoma is inactive: 105%; with EKVX NSCLC, inactive: 63.5%; with SN12C renal, inactive: 101%; with UO-31 renal, inactive: 86.7%; with TK-10 renal, inactive: 106%; with ACHN renal it was inactive: 102%. Moreover, the growth in the assay on CAKI-1 renal is inactive: 90.4%; with A498 renal, inactive: 82.3%; in the assay with HL-60(TB) leukemia it was inactive: 96.6%; in the assay with CCRF-CEM leukemia it was inactive: 97.6%; with MOLT-4 leukemia, inactive: 101%; with SR leukemia, inactive: 89.5%. Also, the growth was inactive: 109% with RPMI-8226 leukemia; inactive: 99% with OVCAR-8 ovarian; inactive: 103% with OVCAR-5 ovarian; inactive: 114% in the assay with OVCAR-4 ovarian; inactive: 117% in the assay on SK-OV-3 ovarian; inactive: 126% in the assay on OVCAR-3 ovarian. In addition, the growth with HS 578T breast was inactive: 105%.

Take `O=[N+]([O-])c1cc([N+](=O)[O-])c(O)c([N+](=O)[O-])c1.c1ccc([I+]c2ccccc2)cc1`: the growth with EKVX NSCLC was inactive: 43.8%; in the assay on SN12C renal, inactive: 85%; with UO-31 renal, inactive: 59.3%; with TK-10 renal, inactive: 42.5%; with ACHN renal it was inactive: 52%; with CAKI-1 renal it was inactive: 43.5%. In addition, the growth in the assay on A498 renal was inactive: 77.8%; with HL-60(TB) leukemia it was inactive: 35.2%; in the assay with CCRF-CEM leukemia it was inactive: 40.7%; in the assay with MOLT-4 leukemia, inactive: 55.5%; in the assay with SR leukemia, inactive: 29.7%; in the assay with RPMI-8226 leukemia, inactive: 51.2%. Moreover, the growth was inactive: 36.6% in the assay with OVCAR-8 ovarian; inactive: 87.2% in the assay with OVCAR-5 ovarian; inactive: 54.4% in the assay on OVCAR-4 ovarian; inactive: 62.8% in the assay on SK-OV-3 ovarian; inactive: 63.5% with IGROV1 ovarian; inactive: 72.1% with OVCAR-3 ovarian. Besides, in the assay on HS 578T breast, the growth was inactive: 84.3%.
